A short description of this series: Bone and liver uptake scored from scintigraphic images of miniature pigs with melanotic lesions. Format: in vivo. Particulars: 24 hour images; average score of 3 investigators, scale 0-3. The protocol:
Images (right lateral, left lateral and dorsal) were made at 4, 24, 48 and 72 hours.
1--Slight uptake (negligible)
2--Moderate uptake (intermediate )
3--Definite uptake (high)
The average of the 3 investigators independent scores were used in the following table.

As to `CC(=O)Nc1cc(CN(CC(=O)O)CC(=O)O)c(O)c(CN(CC(=O)O)CC(=O)O)c1.[153Sm+3]` [Example 4], the “Bone Uptake” value was 2.67.

`CC(=O)Nc1cc(CN(CC(=O)O)CC(=O)O)c(O)c(CN(CC(=O)O)CC(=O)O)c1.[153Sm+3]` [Example 1]: the “Bone Uptake” value was found to be 2.67.

As for `CC(=O)Nc1cc(CN(CC(=O)O)CC(=O)O)c(O)c(CN(CC(=O)O)CC(=O)O)c1.[153Sm+3]` [Example 3], the “Bone Uptake” value was 2.67.
